Consider 36 compounds from PubChem BioAssay AID2107 (National Center for Advancing Translational Sciences (NCATS), 2009).

Sequences of proteins named here, by UniProt entry; tags and fusion partners are left off. Residues count along the entry.
UniProt P06280, 32-429 limits assumed: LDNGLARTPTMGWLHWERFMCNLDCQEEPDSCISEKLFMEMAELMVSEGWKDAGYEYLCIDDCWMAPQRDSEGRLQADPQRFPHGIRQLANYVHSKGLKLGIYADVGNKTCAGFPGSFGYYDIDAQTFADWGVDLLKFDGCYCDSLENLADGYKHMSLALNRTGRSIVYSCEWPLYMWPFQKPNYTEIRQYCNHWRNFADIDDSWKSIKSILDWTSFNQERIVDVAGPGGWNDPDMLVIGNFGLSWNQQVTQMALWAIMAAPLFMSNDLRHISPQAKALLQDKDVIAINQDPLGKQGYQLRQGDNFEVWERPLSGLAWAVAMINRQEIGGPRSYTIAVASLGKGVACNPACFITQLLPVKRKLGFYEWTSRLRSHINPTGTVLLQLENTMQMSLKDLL

Only a part is listed here, and it is no random draw. Some salts and complexes are drawn in separate pieces, as the source files them; their charges need not balance. The source made the active and inactive calls. Calls come from the whole dose curve; as a rule, active = well fitted inhibition curve with a large enough effect; inconclusive = small, poorly fitted or top-dose-only effect, or effect the other way; inactive = flat fitted curve, though single readings scatter.

This experiment has as its target Alpha-galactosidase A (Homo sapiens) (UniProt P06280). Description: qHTS Assay for Inhibitors and Activators of Human alpha-Galactosidase From Spleen Homogenate.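 Note: 0% = enzyme with vehicle and -100% = no enzyme basal signal.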 The conditions noted are these: 4MU-alpha-Gal fluorescence, 40 min; at 80 µM (top of the series). From the text:
NIH Chemical Genomics Center [NCGC] NIH Molecular Libraries Probe Production Centers Network [MLPCN] MLPCN Grant: R03 MH084842-01 Assay Submitter (PI): Wei Zheng NCGC Assay Overview: Alpha-galactosidase is a homodimeric glycoprotein that hydrolyzes the terminal alpha-galactosyl moieties from glycolipids and glycoproteins. Deficiency of this enzyme results in Fabry Disease with progressive accumulation of globotriaosylceramide and other glycosphingolipids in vascular endothelial cells that causes renal failure, myocardial infarction and stroke, and premature death in patients. It has been reported that the improper folding and trafficking of alpha-galactosidase resulting from genetic mutations may account for a significant number of Fabry patients. […] We optimized this alpha-galactosidase assay in 1536-well plate format for identification of novel small molecule inhibitors or activators with structures other than the sugar analogs in order to develop new pharmacological chaperones. In particular, this assay is directed towards discovering compounds active in more natural setting, tissue homogenate, that may have been missed by screens of the purified enzyme under more stringent conditions.
NCGC Assay Protocol Summary: This is a fluorogenic enzyme assay with 4-methylumbelliferyl-alpha-D-galactopyranoside as the substrate and human spleen homogenate containing alpha-galactosidase as the enzyme preparation. Upon hydrolysis of this fluorogenic substrate, the resulting product, 4-methylumbelliferone (which excites at 365 nm and emits at 440 nm) can be detected by a fluorescence plate reader. Data were normalized to the controls for basal activity (without enzyme) and 100% activity (with enzyme). The AC50 values were determined from concentration-response data modeled with the standard Hill equation. Assay buffer: 50 mM citric acid (titrated with potassium phosphate to pH 5.0), 0.01% Tween-20 (pH 5.0 is an optimal condition for this enzyme assay) 1536-well assay protocol for the alpha-galactosidase from human spleen homogenate: (1) Add 2 ul/well spleen homogenate (1 ug) (2) Add 23 nL compounds in DMSO solution. The final titration was 0.5 nM to 58 uM. (3) Add 2 ul of substrate (1 mM final) (4) Incubate at 37C for 40 min (5) Add 2 ul stop solution (1M NaOH and 1M Glycine mixture, pH 10) (6) Detect the assay plate in a ViewLux plate reader (PerkinElmer) with Ex=365 nm and Em=440nm. Keywords: Alpha-galactosidase, Fabry Disease, pharmacological chaperone, chaperone therapy, high throughput screening, alpha- galactosidase inhibitor, MLSMR, MLSCN, NIH Roadmap, qHTS and NCGC
A general note: qHTS replaces the single test concentration by a dilution series.
With `COc1ccc(C(=O)NCC2(N3CCCCC3)CCCCC2)c(OC)c1OC`, the activity change, negative = inhibition is inactive: 3.39%.
For the compound `O=C(NCC1(N2CCOCC2)CCCCC1)c1cc2ccccc2o1`, the activity change, negative = inhibition is inactive: -12.3%.
Then `CCOC(=O)N1CCC(Nc2ccc(OC)cc2)CC1`, with inactive: -6.27%; and `N#CC1(Nc2ccccc2)CCN(Cc2ccccc2)CC1`, with inactive: -25.6%.
In the case of `O=C(OC1CN2CCC1CC2)C1c2ccccc2Oc2ccccc21` (stereo unspecified) it was inactive: 5.33%; in that of `CCOc1ccc(C)cc1CN(CCCl)CCCl`, inactive: -3.62%.
Consider `COc1ccc(NC2CCN(CCc3ccccc3)CC2)c(OC)c1`, for which the activity change, negative = inhibition is inactive: -8.37%.
Then `Cc1ccc(OCC(C)C)c(CN(CCCl)CCCl)c1`, with inactive: -0.173%; and `O=C(NCC1(N2CCCCC2)CCCCC1)c1cccc([N+](=O)[O-])c1`, with inactive: -7.22%.
In the case of `N#CC1(Nc2ccccc2)CCN(CCc2ccccc2)CC1`, the activity change, negative = inhibition is inactive: 0.232%.
Regarding `O=[N+]([O-])c1cc([N+](=O)[O-])c(NCC2CCS(=O)(=O)C2)c([N+](=O)[O-])c1` (stereo unspecified), the activity change, negative = inhibition was inactive: 0.947%.
Then `CN1CCN(CCOC(=O)C(O)(c2ccccc2)c2ccccc2)CC1`, with inactive: 3.52%; and `COc1ccc(NC2CCN(C(=O)OC(C)(C)C)CC2)cc1`, with inactive: -8.81%.
In the case of `O=C(NCC1(N2CCOCC2)CCCCC1)c1cc(=O)[nH]c2ccccc12` it was inactive: -3.21%.
Then `CN(C)c1cccc(C(=O)NCC2(N3CCCCC3)CCCCC2)c1`, with inactive: -13.3%.
For `COc1ccc(CN(CCCl)CCCl)cc1Cl`, the activity change, negative = inhibition was inactive: 2.5%.
With `CC(C)c1ccc(NC2CCN(C(=O)OC(C)(C)C)CC2)cc1`, the activity change, negative = inhibition is inactive: 6.79%.
For `CCOP(=O)(Cl)Cl`, the activity change, negative = inhibition is inactive: 0.602%.
Take `COc1ccc2c(c1O)-c1c(O)c(OC)cc3c1[C@H](C2)[N+](C)(C)CC3.O=[N+]([O-])c1cc([N+](=O)[O-])c([O-])c([N+](=O)[O-])c1[O-]`: the activity change, negative = inhibition was inactive: 1.51%.
As for `O=C(OC1CN2CCC1CC2)c1ccc([N+](=O)[O-])cc1` (stereo unspecified), the activity change, negative = inhibition is inactive: -3.38%.
Consider `COc1ccc(C(=O)NCC2(N3CCOCC3)CCCCC2)cc1OC`, for which the activity change, negative = inhibition was inactive: 0.953%.
In the case of `N/C(=N\O)c1c(N)no[n+]1[O-]` it was inactive: 2.89%; in that of `O=C(O)c1cccc(Nc2c([N+](=O)[O-])cc([N+](=O)[O-])cc2[N+](=O)[O-])c1`, inactive: -4.56%; in that of `O=C(OC1CN2CCC1CC2)C1c2ccccc2C=Cc2ccccc21` (stereo unspecified), inactive: 4.77%.
In the case of `N#Cc1ccc(C(=O)NCC2(N3CCCCC3)CCCCC2)cc1` it was inactive: -5.69%; in that of `CCOC(=O)C(CC)C1=NC(C)(C)Cc2ccccc21.O=[N+]([O-])c1cc([N+](=O)[O-])c(O)c([N+](=O)[O-])c1` (stereo unspecified), inactive: 2.2%; in that of `c1ccc(CN2CCC(Nc3ccccc3)CC2)cc1`, inactive: -7.91%.
In the case of `ClCCOP(OCCCl)OCCCl` it was inactive: -4.86%; in that of `Fc1ccccc1NC1CCN(Cc2ccccc2)CC1`, inactive: -0.957%.
Consider `CCN1CCC(Nc2cccc(F)c2)CC1`, for which the activity change, negative = inhibition is inactive: 12.5%.
For the compound `CN(C)c1ccc(C(=O)NCC2(N3CCCCC3)CCCCC2)cc1`, the activity change, negative = inhibition was inactive: 6.56%.
In the case of `CCOc1ncccc1C(=O)NCC1(N2CCOCC2)CCCCC1` it was inactive: -8.4%.
Then `CC(C)(C)OC(=O)N1CCC(Nc2ccccc2)CC1`, with inactive: -5.21%; and `CCC(CO)(C(=O)OC1CN2CCC1CC2)c1ccccc1` (stereo unspecified), with inactive: -9.76%; and `COc1cc(OC)cc(C(=O)NCC2(N3CCOCC3)CCCCC2)c1`, with inactive: -5.48%.
Regarding `CCCOc1ccc(C)cc1CN(CCCl)CCCl`, the activity change, negative = inhibition is inactive: 5.2%.
